These are literature values, as cited in US20070141182A1, “Combination of multiple nonteroidal antiinflammatory drugs and muscle relaxants for local treatment of musculoskeletal pain” (priority 2005, published 2007).

The data set concerns COX-1 and COX-2.

Take `CC1=C(CC(=O)O)c2cc(F)ccc2/C1=C\c1ccc([S+](C)[O-])cc1` (stereo not shown) [sulindac]: the “COX-1 / COX-2 isoform selectivity of inhibition” value is listed as “preferentially inhibit COX-1”.
